Molecular target: Urokinase-type plasminogen activator (Homo sapiens, UniProt P00749)
Assay: The compound was tested in vitro for its inhibitory activity against human urokinase enzyme, activity expressed as IC50

Compared with C[C@H](NC(=O)[C@@H](CO)NC(=O)OCc1ccccc1)C(=O)N[C@H]1CCCN(C(=N)N)C1O (stereo partly drawn), C[C@H](NC(=O)[C@@H](CO)NS(=O)(=O)c1ccccc1)C(=O)N[C@H]1CCCN(C(=N)N)C1O (stereo partly drawn) is 1.8-fold lower in IC50: 19 nM for the first, 10.3 nM for the second.

With N=C(N)N1CCCC(NC(=O)[C@H]2CCCN2C(=O)C(CO)NC(=O)OCc2ccccc2)C1O (stereo partly drawn) the IC50 was 12.4 nM.

Source: ChEMBL document CHEMBL1133361, “Synthesis and biological activity of peptidyl aldehyde urokinase inhibitors” (Bioorg Med Chem Lett, 2000)
